# Measured values reported in US8003627B2, “Urokinase inhibitors” (Universiteit Antwerpen, priority 2005, dated 2011).
# Key:
# Format in all cases: biochemical
# FXa = FXa (Homo sapiens, UniProt P00742); experiment: Selectivity: FXa inhibition, chromogenic substrate S-2772; details: at 250 μM; read-out: % inhibition at given concentration, FXa
# plasmin = target: T1, plasmin (Homo sapiens, UniProt P00747); experiment: Selectivity: plasmin inhibition, chromogenic substrate S-2366; details: for inhibition at 250 µM: read-out: % inhibition at given concentration, Plasmin; for selectivity ratio / selectivity index (IC50 plasmin/IC50 uPA), figures between brackets: plasmin vs uPA
# T1 construct: uPA mediates the proteolytic cleavage of plasminogen to give plasmin
# tPA = tPA (Homo sapiens, UniProt P00750); experiment: Selectivity: tPA inhibition, chromogenic substrate S-2288; details: for inhibition at 250 µM: read-out: % inhibition at given concentration, tPA; for selectivity ratio / selectivity index (IC50 tPA/IC50 uPA), figures between brackets: tPA vs uPA
# thrombin = thrombin (Homo sapiens, UniProt P00734); experiment: Selectivity: thrombin inhibition, chromogenic substrate S-2366; details: for inhibition at 250 µM: read-out: % inhibition at given concentration, Thrombin; for selectivity ratio / selectivity index (IC50 thrombin/IC50 uPA), figures between brackets: thrombin vs uPA
# uPA = uPA (Homo sapiens, UniProt P00749); parameters: purchased Sigma-Aldrich; details: apparent second order rate constant, 250 μM substrate
compound,measurement,setting,value
"CC(=O)NC(Cc1ccc(NC(=N)N)cc1)P(=O)(Oc1ccccc1)Oc1ccccc1 (stereo not shown) [Compound 41, Diphenyl 1-acetamido-2-(4-guanidinophenyl)ethylphosphonate]",inhibition at 250 µM,FXa,37%
"CNC(=O)NC(Cc1ccc(NC(=N)N)cc1)P(=O)(Oc1ccccc1)Oc1ccccc1 (stereo not shown) [Compound 39a, Diphenyl 2-(4-guanidinophenyl)-1-(3-methylureido)ethylphosphonate]",inhibition at 250 µM,plasmin,15%
same,inhibition at 250 µM,tPA,42%
same,inhibition at 250 µM,thrombin,42%
same,inhibition at 250 µM,FXa,27%
"CC(C)c1ccc(C(C)C)c(S(=O)(=O)NC(Cc2ccc(NC(=N)N)cc2)P(=O)(Oc2ccccc2)Oc2ccccc2)c1C(C)C (stereo not shown) [Compound 7f, Diphenyl 1-(2,3,6-tri-isopropylbenzenesulfonyl)amino-2-(4-guanidinophenyl)-ethanephosphonate]",kapp (M^−1 · s^−1) uPA,uPA,1600 M⁻¹ s⁻¹
"COC(=O)NC(Cc1ccc(NC(=N)N)cc1)P(=O)(Oc1ccccc1)Oc1ccccc1 (stereo not shown) [Compound 35a, Methyl 1-(diphenoxyphosphoryl)-2-(4-guanidinophenyl)ethylcarbamate]","selectivity ratio / selectivity index (IC50 plasmin/IC50 uPA), figures between brackets",plasmin,(4129)
same,"selectivity ratio / selectivity index (IC50 tPA/IC50 uPA), figures between brackets",tPA,(7419)
same,"selectivity ratio / selectivity index (IC50 thrombin/IC50 uPA), figures between brackets",thrombin,(5355)
same,inhibition at 250 µM,FXa,57%
"N=C(N)Nc1ccc(CC(N)P(=O)(Oc2ccccc2)Oc2ccccc2)cc1 (stereo not shown) [Compound 34d, Diphenyl 1-amino-2-(4-guanidinophenyl)ethylphosphonate]",inhibition at 250 µM,plasmin,31%
same,inhibition at 250 µM,tPA,32%
same,inhibition at 250 µM,thrombin,41%
same,inhibition at 250 µM,FXa,11%
"CCC(NC(=O)OCc1ccccc1)(c1ccc(C(=N)N)cc1)P(=O)(Oc1ccccc1)Oc1ccccc1 (stereo not shown) [Compound 8c, Diphenyl 1-(N-benzyloxycarbonylamino)-1-(4-amidinophenyl)propanephosphonate]",kapp (M^−1 · s^−1) uPA,uPA,140 M⁻¹ s⁻¹
"N=C(N)Nc1ccc(CC(NC(=O)NCc2ccccc2)P(=O)(Oc2ccccc2)Oc2ccccc2)cc1 (stereo not shown) [Compound 39b, Diphenyl 1-(3-benzylureido)-2-(4-guanidinophenyl)ethylphosphonate]",inhibition at 250 µM,plasmin,34%
same,inhibition at 250 µM,tPA,50%
same,inhibition at 250 µM,thrombin,46%
same,inhibition at 250 µM,FXa,36%
Diphenyl 1-(naphthalenesulfonylamino)-2-(4-guanidinophenyl)-ethanephosphonate [Compound 7e],kapp (M^−1 · s^−1) uPA,uPA,7300 M⁻¹ s⁻¹
"Cc1ccccc1S(=O)(=O)NC(Cc1ccc(NC(=N)N)cc1)P(=O)(Oc1ccccc1)Oc1ccccc1 (stereo not shown) [Compound 7d, Diphenyl 1-(o-toluenesulfonylamino)-2-(4-guanidinophenyl)-ethanephosphonate]",kapp (M^−1 · s^−1) uPA,uPA,19000 M⁻¹ s⁻¹
"CCOC(=O)NC(Cc1ccc(NC(=N)N)cc1)P(=O)(Oc1ccccc1)Oc1ccccc1 (stereo not shown) [Compound 35c, Ethyl 1-(diphenoxyphosphoryl)-2-(4-guanidinophenyl)ethylcarbamate]","selectivity ratio / selectivity index (IC50 plasmin/IC50 uPA), figures between brackets",plasmin,(2000)
same,"selectivity ratio / selectivity index (IC50 tPA/IC50 uPA), figures between brackets",tPA,(7125)
same,"selectivity ratio / selectivity index (IC50 thrombin/IC50 uPA), figures between brackets",thrombin,(475)
same,inhibition at 250 µM,FXa,62%
